This note sets out measurements from article PMC9233675, “Ru(II) photocages enable precise control over enzyme activity with red light” (Nature Communications, 2022).

One series concerns the target T1, CYP1B1 S269A (Homo sapiens, UniProt Q16678, S269A).
T1 sequence (Q16678 1-543 S269A): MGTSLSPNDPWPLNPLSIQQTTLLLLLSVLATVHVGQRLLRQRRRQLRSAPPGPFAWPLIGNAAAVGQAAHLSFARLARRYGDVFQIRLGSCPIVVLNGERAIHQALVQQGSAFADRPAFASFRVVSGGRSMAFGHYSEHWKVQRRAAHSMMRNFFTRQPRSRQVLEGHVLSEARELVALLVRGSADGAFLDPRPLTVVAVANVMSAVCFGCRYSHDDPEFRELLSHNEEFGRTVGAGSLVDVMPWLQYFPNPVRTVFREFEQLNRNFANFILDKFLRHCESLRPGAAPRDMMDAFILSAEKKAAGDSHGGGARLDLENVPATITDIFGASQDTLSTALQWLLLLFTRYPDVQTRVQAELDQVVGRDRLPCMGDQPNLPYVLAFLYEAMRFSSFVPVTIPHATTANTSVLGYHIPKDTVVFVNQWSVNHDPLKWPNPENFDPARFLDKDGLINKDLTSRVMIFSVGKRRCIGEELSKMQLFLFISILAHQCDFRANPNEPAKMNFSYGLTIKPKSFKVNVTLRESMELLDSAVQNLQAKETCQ
The series can be described thus: In cell CYP1B1 activity assay, S269A variant.

Another series has as its target T2, CYP1B1 (Homo sapiens, UniProt Q16678).
T2 sequence (Q16678 1-543): T1 sequence (Q16678 1-543 S269A) with A269S
The series can be described thus: In cell activity assay for CYP1B1 (7-ethoxyresorufin conversion, HEK293 T-Rex cells).

Series [1] is described as follows: Stability of compounds in human liver microsomes. As to conditions: no co-factor (no NADPH). (In general: Liver microsomes are vesicles of endoplasmic reticulum, rich in cytochrome P450 enzymes.)

Residue numbers refer to the chain shown, from its start. pIC50: −log10 of the molar value.

For the molecule `O=c1cc(-c2ccccc2)oc2c1ccc1ccccc12` [ANF, α-naphthoflavone, reference compound], the pIC50 against CYP1B1 S269A and on CYP1B1 was 6.85 in each case.
For `O=C(O)Cc1ccccc1Nc1c(Cl)cccc1Cl` [Diclofenac, reference compound], the “Remaining, % (NCF=60min)” value in series [1] was determined as 86.4%.
